Assay [1] in a line: Selectivity ratio of IC50 for inhibition of JNK1 (unknown origin) to IC50 for inhibition of JNK3 (unknown origin).
The nature of assay [2]: Selectivity ratio of IC50 for inhibition of p38alpha (unknown origin) to IC50 for inhibition of JNK3 (unknown origin).
The nature of assay [3]: Selectivity ratio of IC50 for inhibition of GSK3beta (unknown origin) to IC50 for inhibition of JNK3 (unknown origin).

Where only a bound is given, the exact number is not on record here.

On to `CCOC(=O)C1Cc2nc(-c3ccc(Cl)c(Cl)c3)n(-c3ccnc(N[C@@H]4CCCN(C(=O)C5CC5)C4)n3)c2C1` (stereo not given in full), for which the Ratio IC50 in assay [1] turned out to be 100. As to `CCOC(=O)C1Cc2nc(-c3ccc4ccccc4c3)n(-c3ccnc(N[C@H]4CCCN(C(=O)C5CC5)C4)n3)c2C1` (stereo not given in full), in assay [1], the Ratio IC50 amounted to 50.

For the molecule `CCOC(=O)C1Cc2nc(-c3ccc4ccccc4c3)n(-c3ccnc(N[C@@H]4CCCN(C(=O)C5CC5)C4)n3)c2C1` (stereo not given in full), the Ratio IC50 in assay [1] worked out at 50. As for `CCOC(=O)C1Cc2nc(-c3ccc(Cl)c(Cl)c3)n(-c3ccnc(N[C@H]4CCCN(C(=O)C5CC5)C4)n3)c2C1` (stereo not given in full), the Ratio IC50 in assay [1] was 100. `NC(=O)C1Cc2nc(-c3ccc(Cl)c(Cl)c3)n(-c3ccnc(N[C@H]4CCCN(C(=O)C5CC5)C4)n3)c2C1` (stereo not given in full): the Ratio IC50 in assay [2] came to 600; in assay [3], 10000; in assay [1] it was 200.

As for `NC(=O)C1Cc2nc(-c3ccc(Cl)c(Cl)c3)n(-c3ccnc(N[C@@H]4CCCN(C(=O)C5CC5)C4)n3)c2C1` (stereo not given in full), the Ratio IC50 in assay [2], in assay [3] and in assay [1] was more than 100 throughout.

For the origin of these results see ChEMBL document CHEMBL5385856, “Novel 1,4,5,6-tetrahydrocyclopenta[d]imidazole-5-carboxamide-based JNK3 inhibitors: Design, synthesis, molecular docking, and therapeutic potential in neurodegenerative diseases” (Eur J Med Chem, 2023).
